We go through one molecule from patent publication US20140073556A1 (published 2014).

For the experiment, the target named is T1, recombinant protein comprising the whole extracellular part of IL1RI (UniProt P14778 18-336).
T1 chain: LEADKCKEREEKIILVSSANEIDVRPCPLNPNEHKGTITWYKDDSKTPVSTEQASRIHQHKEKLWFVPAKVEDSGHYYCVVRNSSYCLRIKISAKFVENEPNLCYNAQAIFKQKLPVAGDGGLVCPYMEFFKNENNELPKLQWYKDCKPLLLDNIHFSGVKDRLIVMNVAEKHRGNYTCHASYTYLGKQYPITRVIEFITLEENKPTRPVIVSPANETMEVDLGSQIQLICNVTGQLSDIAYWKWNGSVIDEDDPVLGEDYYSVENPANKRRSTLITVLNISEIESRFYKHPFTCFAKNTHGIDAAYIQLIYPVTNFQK
Kind of experiment: SPR. For orientation: SPR reads the build-up and loss of mass on a sensor chip optically.

B1: IL1Ra protein (IL-1 receptor antagonist protein) (ligand)
chain: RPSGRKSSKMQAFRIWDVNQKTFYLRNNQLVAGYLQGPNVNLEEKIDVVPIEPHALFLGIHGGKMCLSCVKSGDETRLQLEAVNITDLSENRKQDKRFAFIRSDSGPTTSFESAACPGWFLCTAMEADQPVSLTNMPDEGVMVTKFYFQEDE
As usually defined, the Kd is the concentration at which binding is half-saturated. On to B1, for which the dissociation constant (Kd) was 48 nM.
